According to US20200316038A1, “METHODS AND COMPOSITIONS FOR TREATING UREA CYCLE DISORDERS, IN PARTICULAR OTC DEFICIENCY” (CAMP4 THERAPEUTICS CORPORATION, priority 2017, published 2020):

Legend:
ASL = assay: RNA-seq, ASL expression in compound-treated primary human hepatocytes; assay type: cell-based; conditions: compounds that significantly increase ASL expression
ARG1 = assay: RNA-seq, ARG1 expression in compound-treated primary human hepatocytes; assay type: cell-based; conditions: compounds that significantly increase ARG1 expression
CPS1 = assay: RNA-seq, CPS1 expression in compound-treated primary human hepatocytes; assay type: cell-based
ASS1 = assay: RNA-seq, ASS1 expression in compound-treated primary human hepatocytes; assay type: cell-based
[1] = test system: multiple urea cycle-related genes; assay: RNA-seq, compounds that modulate multiple urea cycle-related genes; assay type: cell-based; conditions: primary human hepatocytes

## CC[C@@H]1/C=C/C=C/C[C@H](C)[C@H](O)[C@](C)(O)C(=O)[C@H](C)[C@@H](O)[C@H](C)C(=O)[C@H](C)[C@@H](O)[C@H](C)/C=C/C(=O)O[C@H]2[C@@H](C)[C@@H](CC1)O[C@@]1(CC[C@@H](C)[C@@H](C[C@H](C)O)O1)[C@@H]2C [Oligomycin A]
ASL
  ASL expression, Fold change (Log 2) vs untreated: 0.84 Log 2
ARG1
  ARG1 expression, Fold change (Log 2) vs untreated: 0.75 Log 2

## BMP2: Bone morphogenetic protein 2, TGF-B superfamily; BMPR1A activator
CPS1
  Fold change (Log 2) vs untreated: 1.31 Log 2
ASS1
  Fold change (Log 2) vs untreated: 0.75 Log 2
ARG1
  ARG1 expression, Fold change (Log 2) vs untreated: 0.81 Log 2
[1]
  number of urea cycle genes whose expression was significantly up-regulated: four
[1]; urea cycle-related genes significantly increased by the compound
  Up-regulated Genes: ASS1, CPS1, NAGS, ARG1
NAGS
  NAGS expression, Fold change (Log 2) vs untreated: 0.6 Log 2
